The results in this text go back to patent US20250339531A1, “DUX4 POLYPEPTIDES AND NUCLEIC ACIDS FOR TREATING INFLAMMATORY AND AUTOIMMUNE CONDITIONS” (Fred Hutchinson Cancer Center, priority 2021, published 2025).

In this experiment the test system is proteins that co-immunoprecipitated with DUX4-CTD constructs expressed in MB135 myoblasts. The experiment can be described thus: LC-MS of proteins co-immunoprecipitated with DUX4-CTD (Table 1) and western validation. More on the design: key to 3. + IFNg + Dox longCTD / 3. + Dox longCTD / 4. mL1dL2 + Dox + IFNG: peptide-spectrum matches (PSMs) per protein. The class given is binding, human. An excerpt:
As an unbiased method to identify proteins that interact with the C-terminal region of DUX4, liquid chromatography mass spectroscopy (LC-MS) was used to identify proteins that co-immunoprecipitated with DUX4-CTD constructs expressed in MB135 myoblasts. In the first experiment, MB135iDUX4-CTD cells were used, either untreated, treated with doxycycline alone, or with both doxycycline and IFNG. In the second experiment, MB135iDUX4-CTD and MB135iDUX4mL1dL2 cells were used, both treated with doxycycline and IFNG, compared to these two cell lines untreated and combined as a control. Proteins with a minimum of 2 peptide spectrum matches (PSMs) in at least one sample that were identified in both experiments were assigned to one of ten categories (see Methods) to separate candidate interactors from other categories that might be co-purified because of obligate interactions (e.g., proteasome or ribosome) or might be less likely to be physiologically relevant (e.g., cytoskeletal proteins). Candidate interactors were then ranked based on the total PSMs for that protein across all samples.
Centrifugation at 2500 rcf at 4° C. for 5 min pelleted the nuclei, supernatant was discarded, and nuclei resuspended in 1 mL IP buffer pH 7.4 (25 mM Tris-HCl pH 7.5, 175 mM NaCl, 1 mM EDTA, 0.2% NP-40, 5% glycerol) and incubated for 1 hour at 4° C. with rotation then spun at 21000 rcf for 10 minutes at 4° C. to pellet insoluble debris. Protein concentration was determined using the Pierce BCA Protein Assay Kit (ThermoFisher, 23225). An equivalent amount of protein per sample was pre-cleared with Dynabeads Protein G (Invitrogen) bound to mouse IgG (Abcam #131368) for 1 hour at 4° C. with rotation. […]
For LC-MS, anti-FLAG immunoprecipitation was performed with beads cross-linked to the anti-FLAG antibody and the proteins competitively eluted with FLAG peptide. […] Proteomics data were analyzed using Proteome Discoverer 2.4 against a Uniprot human database that included common contaminants using Sequest HT and Percolator for scoring. […]

B1: Q14444 (protein, UniProt Q14444 1-709, looked up)
chain: MPSATSHSGSGSKSSGPPPPSGSSGSEAAAGAGAAAPASQHPATGTGAVQTEAMKQILGVIDKKLRNLEKKKGKLDDYQERMNKGERLNQDQLDAVSKYQEVTNNLEFAKELQRSFMALSQDIQKTIKKTARREQLMREEAEQKRLKTVLELQYVLDKLGDDEVRTDLKQGLNGVPILSEEELSLLDEFYKLVDPERDMSLRLNEQYEHASIHLWDLLEGKEKPVCGTTYKVLKEIVERVFQSNYFDSTHNHQNGLCEEEEAASAPAVEDQVPEAEPEPAEEYTEQSEVESTEYVNRQFMAETQFTSGEKEQVDEWTVETVEVVNSLQQQPQAASPSVPEPHSLTPVAQADPLVRRQRVQDLMAQMQGPYNFIQDSMLDFENQTLDPAIVSAQPMNPTQNMDMPQLVCPPVHSESRLAQPNQVPVQPEATQVPLVSSTSEGYTASQPLYQPSHATEQRPQKEPIDQIQATISLNTDQTTASSSLPAASQPQVFQAGTSKPLHSSGINVNAAPFQSMQTVFNMNAPVPPVNEPETLKQQNQYQASYNQSFSSQPHQVEQTELQQEQLQTVVGTYHGSPDQSHQVTGNHQQPPQQNTGFPRSNQPYYNSRGVSRGGSRGARGLMNGYRGPANGFRGGYDGYRPSFSNTPNSGYTQSQFSAPRDYSGYQRDGYQQNFKRGSGQSGPRGAPRGRGGPPRPNRGMPQMNTQQVN
modifications: full-length
B1: the “3. + Dox longCTD” value (bait longCTD, experiment 3, Dox only) came to 5. Besides, the “3. + IFNg + Dox longCTD” value (bait longCTD, experiment 3, IFNg + Dox) is given as 5. The “SUM of PSMS” value (sum over all samples) stood at 11.
